Laboratory results from PMC7723054.
Some of the results follow.

Assays:
Experiment in all cases: FOREST: bead pull-down of RNA structure library v1, barcode microarray; U1A/LIN28A: 20 mM HEPES pH 7.5, 80 mM KCl, 20 mM NaCl, 10% glycerol, 2 mM DTT, 0.1 ug/uL BSA, 4 C; BG4/CIRBP/DHX36: 10 mM Tris-HCl pH 7.5, 100 mM KCl (or LiCl),; high values mean tight binding
LIN28A = target: T1, LIN28A (human?, UniProt Q9H9Z2 1-209)
T1 sequence: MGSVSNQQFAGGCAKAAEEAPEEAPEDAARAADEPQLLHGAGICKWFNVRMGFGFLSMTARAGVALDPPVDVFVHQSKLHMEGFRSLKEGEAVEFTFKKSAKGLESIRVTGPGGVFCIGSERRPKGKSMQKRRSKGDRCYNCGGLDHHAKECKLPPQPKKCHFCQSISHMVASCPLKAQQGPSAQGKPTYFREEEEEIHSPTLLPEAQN

CIRBP = target: T2, CIRBP (Homo sapiens, UniProt Q14011 1-172)
T2 sequence: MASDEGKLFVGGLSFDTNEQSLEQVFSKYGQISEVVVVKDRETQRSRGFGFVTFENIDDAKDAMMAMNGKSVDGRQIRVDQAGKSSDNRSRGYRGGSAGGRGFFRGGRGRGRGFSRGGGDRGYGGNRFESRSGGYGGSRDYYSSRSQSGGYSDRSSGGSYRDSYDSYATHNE

DHX36 = target: T3, DHX36 (Homo sapiens, UniProt Q9H2U1 1-1008)
T3 sequence: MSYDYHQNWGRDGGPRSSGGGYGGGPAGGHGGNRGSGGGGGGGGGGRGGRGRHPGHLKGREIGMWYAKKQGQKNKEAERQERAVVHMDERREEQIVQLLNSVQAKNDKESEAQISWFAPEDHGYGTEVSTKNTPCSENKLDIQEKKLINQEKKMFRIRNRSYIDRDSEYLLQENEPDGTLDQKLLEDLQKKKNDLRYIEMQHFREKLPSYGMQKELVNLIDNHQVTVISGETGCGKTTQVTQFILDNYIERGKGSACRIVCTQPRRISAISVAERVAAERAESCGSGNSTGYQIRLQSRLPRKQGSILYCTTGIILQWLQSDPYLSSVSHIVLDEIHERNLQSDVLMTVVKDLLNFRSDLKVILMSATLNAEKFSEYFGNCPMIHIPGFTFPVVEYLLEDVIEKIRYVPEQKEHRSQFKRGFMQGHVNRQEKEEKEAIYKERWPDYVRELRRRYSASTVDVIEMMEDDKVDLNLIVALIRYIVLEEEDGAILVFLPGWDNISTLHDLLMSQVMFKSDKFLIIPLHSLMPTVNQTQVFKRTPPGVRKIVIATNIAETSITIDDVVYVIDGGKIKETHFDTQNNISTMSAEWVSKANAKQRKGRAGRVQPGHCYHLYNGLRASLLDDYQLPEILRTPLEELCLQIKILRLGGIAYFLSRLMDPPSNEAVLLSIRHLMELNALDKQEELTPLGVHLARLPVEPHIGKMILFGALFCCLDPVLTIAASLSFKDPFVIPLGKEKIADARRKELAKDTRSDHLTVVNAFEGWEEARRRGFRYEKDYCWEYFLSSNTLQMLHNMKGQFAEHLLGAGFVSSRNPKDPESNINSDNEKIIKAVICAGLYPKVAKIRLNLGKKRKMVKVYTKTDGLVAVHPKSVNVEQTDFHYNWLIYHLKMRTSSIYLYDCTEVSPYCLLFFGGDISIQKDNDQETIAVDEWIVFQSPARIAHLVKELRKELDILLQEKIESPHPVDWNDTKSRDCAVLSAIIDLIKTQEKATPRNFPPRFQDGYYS

Binder | binding signal (LIN28A) [z-score] | binding signal (CIRBP) [z-score] | binding signal (DHX36) [z-score]
hsa-mir-611 (structured_RNA) RNA: GGGACAAACCAGGCGGGAAUAUUAGGAAGGUGUACGAAGUUUCAGCUCCAGACGGAGAUGCGAGCUGAAGCUUCGUGCAC | 1.29 | 0.674 | 1.28
hsa-mir-16-2 (structured_RNA) RNA: GGGAAAGGUUAUGGGCGAGUCAGAAAAUGGUGUACGAAGUUUCAGCUUGGCGUAGUGAAAUAUAUAUUAAACACCAAGCUGAAGCUUCGUGCAC | 1.29 | 0.919 | -0.189
hsa-mir-626 (structured_RNA) RNA: GGGAAAUGUUGAUUAGGGCUUACAACGGGGUGUACGAAGUUUCAGCAUCUGAAUGAUCUCAGCGCUGAAGCUUCGUGCAC | 1.29 | 0.985 | -0.74
hsa-mir-31 (structured_RNA) RNA: GGGAAGACAUCGGUAUCAUGAGCCGCCAGGUGUACGAAGUUUCAGCAGCUGUUGAACUGGGAACCUGCUGCUGAAGCUUCGUGCAC | 1.29 | 0.981 | 0.286
hsa-mir-6720 (structured_RNA) RNA: GGGAGGACCACAAACCCGUAGUACUCAUGGUGUACGAAGUUUCAGCGCCGCGGAAGAAGGGGAAGCGCGCUGAAGCUUCGUGCAC | 1.29 | 0.503 | 0.869
hsa-mir-6503 (structured_RNA) RNA: GGGAAUGGGUCUAAAGGUAAUGGAAUCUGGUGUACGAAGUUUCAGCUCCCCAGAAGCUGAGGAUUAGGGGAGCUGAAGCUUCGUGCAC | 1.29 | 0.353 | 0.815
hsa-mir-4764 (structured_RNA) RNA: GGGAAUAUGACAUAUCACACCGUAGCGGGGUGUACGAAGUUUCAGCUUAUCUGUCACCAGUCAGAUAACUGUCACCAGUCAGUUAAGCUGAAGCUUCGUGCAC | 1.29 | 0.754 | -0.528
hsa-mir-639 (structured_RNA) RNA: GGGAACAUGAGUGUUGCUAACAUGCGCCGGUGUACGAAGUUUCAGCCGGGGCGGACGCAGAGCCGCGUUUAGUCUAUCGGCUGAAGCUUCGUGCAC | 1.28 | 0.784 | 0.445
hsa-mir-345 (structured_RNA) RNA: GGGAAUGCGCCCACAGGAACAAACUCUGGGUGUACGAAGUUUCAGCGGGCUCGUGAUGGCUGGUGGGCCCGCUGAAGCUUCGUGCAC | 1.28 | -0.221 | 1.02
hsa-mir-4526 (structured_RNA) RNA: GGGAGAAAACAUAACGGUACUCAACGGUGGUGUACGAAGUUUCAGCAUGCCCCAGGUGACGUGCUGGGCUGCUGAAGCUUCGUGCAC | 1.28 | 0.44 | -0.0671
hsa-mir-1245b (structured_RNA) RNA: GGGAAGAUUGACGGGUGUCGCACAAAACGGUGUACGAAGUUUCAGCUAAAGAGUAUUCAACAUCGCUGAAGCUUCGUGCAC | 1.27 | 0.905 | -0.58
hsa-mir-3924 (structured_RNA) RNA: GGGAAAGACAGAUGGCUCGGUACGAACUGGUGUACGAAGUUUCAGCAGAUCUAUGUCAUAUAUACAGAUAUGCUGAAGCUUCGUGCAC | 1.26 | 1.43 | 0.32
hsa-mir-5092 (structured_RNA) RNA: GGGAAAGGAACCCAGCCGUCACAGAAAUGGUGUACGAAGUUUCAGCGACUGGACAACAUGAUGAGCCCAAACCAAUCGCUGAAGCUUCGUGCAC | 1.26 | 0.938 | 0.0117
hsa-mir-6853 (structured_RNA) RNA: GGGAAAGCGUCUUAGCCGGAAAGGGUCAGGUGUACGAAGUUUCAGCGUCAGGUGAUGGUGAUAAGGUCAAGGCCUGGCUGAAGCUUCGUGCAC | 1.26 | 0.0457 | 0.104
hsa-mir-3687-1_3687-2 (structured_RNA) RNA: GGGAUGUUGCUCCCCGGGAUACAGACAAGGUGUACGAAGUUUCAGCCGGUGGUCCCUCCCGGCUGAAGCUUCGUGCAC | 1.25 | 0.486 | 0.565
NEAT1_ParasoR_ID1 (structured_RNA) RNA: GGGAUACCUUGCGUCCGAAGUUCUACCGGGUGUACGAAGUUUCAGCGGUUGGUGACACUGUUUUGUGAGAUGGGUUGAAAGCACGUGCUGCCAAAAUAGAAUAAUGUUGGUCCUCUCCGCUGAAGCUUCGUGCAC | 1.25 | -0.0563 | 0.249
hsa-mir-4291 (structured_RNA) RNA: GGGAAGUCCUAUCUUCAGCCGGAAGCAGGGUGUACGAAGUUUCAGCAGCUGGGUGGAGGCAGAGCUGCUGAAGCUUCGUGCAC | 1.25 | 2.09 | 2.39
hsa-mir-379 (structured_RNA) RNA: GGGCAUCCUAUGGAUUCCCAGAUGCGGCGGUGUACGAAGUUUCAGCCGUAGGCGUUAUGAUUUCUGACCUAUGGCUGAAGCUUCGUGCAC | 1.25 | -0.783 | -1.39
hsa-mir-4251 (structured_RNA) RNA: GGGACGUCAUAACACGGCGAAAACUAAGGGUGUACGAAGUUUCAGCAGUGGCCAAUUCCUGCUGAAGCUUCGUGCAC | 1.23 | 0.107 | -0.468
hsa-mir-4324 (structured_RNA) RNA: GGGAAACUGGAGAUCGUGCAAAUUCGAGGGUGUACGAAGUUUCAGCCAGGGAACUUUAAAACCGCUGAAGCUUCGUGCAC | 1.23 | 2.02 | 0.332
hsa-mir-181b-1 (structured_RNA) RNA: GGGACACGGAGGGAGAAAUGAAGCGUAAGGUGUACGAAGUUUCAGCUGGGUUGAACUGUGUGGACAAGCUCAGCUGAAGCUUCGUGCAC | 1.22 | 1.77 | 0.521
hsa-mir-153-2 (structured_RNA) RNA: GGGAGGUGGGAGAUUACGUAUUCGCGUAGGUGUACGAAGUUUCAGCGCAGCUAGUAAUAUGAGCCCAGUUGCGCUGAAGCUUCGUGCAC | 1.22 | 0.126 | 0.483
hsa-mir-3945 (structured_RNA) RNA: GGGAACGUACUAGUAUCUCUGGGUAGCAGGUGUACGAAGUUUCAGCAUAUAAAAUGCAAUUAGCUGAAGCUUCGUGCAC | 1.21 | 1.11 | -0.685
hsa-mir-4497 (structured_RNA) RNA: GGGAAGGUGUUGACCCUUAGUAACCAGAGGUGUACGAAGUUUCAGCGGGCGCCGGCGGCCGGGAGAUCCGCGCUUCCUGAAUCCCGGCCGGCCCGCCCGGCGCCCGCUGAAGCUUCGUGCAC | 1.21 | -0.293 | 1.1
hsa-mir-378i (structured_RNA) RNA: GGGAUAAAAGACGAGGUAUCAAUCUGCAGGUGUACGAAGUUUCAGCAAGGUGGAGUUCUGGGUGCUGUUUUCCCACUCUGCUGAAGCUUCGUGCAC | 1.2 | 2.84 | 1.36
